Assay: Adsorption on nanocellulose crystals: CNC aggregation monitored by dynamic light scattering
Format: physicochemical
Settings: fixed [surfactant]+[CNC]=0.01 wt % in aqueous solution, DLS, lower range = better adsorption
From the text: Following the protocol described in E. K. Oikonomou et al., J. Phys. Chem. B, 2017, 121 (10), 2299-307 the adsorption properties of ammonium compounds can be investigated by monitoring the ratio X=[surfactant]/[CNC] or the mass fraction M=[surfactant]/([surfactant+[CNC]), at fixed [surfactant]+[CNC]=0.01 wt % in aqueous solution, required to induce the agglomeration of the cellulose nanocrystals.
Adsorption of cationic surfactant on negatively charged surface is an important property for various applications. This property is linked to the minimal concentration of cationic surfactant needed to produce aggregation of negatively charged cellulose nano crystal (CNC) in suspension in aqueous media. Comparison of the aggregate size can be monitored by dynamic light scattering (DLS). […]
The range of CNC aggregation corresponds to the range of ratio X (or M) triggering an aggregation of CNC, i.e. the range where the aggregate size measured by DLS is higher than a pure aqueous solution of CNC or an aqueous solution of surfactant at 0.01wt %.
Adsorption properties of surfactant materials QA3 and QA4 were measured in accordance with the protocol described in example 3.

With glycine betaine diester [QA3] the “Range of CNC aggregation (Mass fraction) Mmin − Mmax” value (M=[surfactant]/([surfactant]+[CNC])) was “<<Mmin − Mmax range” and the “Range of CNC aggregation (Ratio) X = [surfactant]/[CNC] Xmin − Xmax” value was “<<Xmin − Xmax range”.
